Test results as given in patent US10208056B2, “Condensed tricyclic compounds as protein kinase inhibitors” (FUNDACIÓN DEL SECTOR PÚBLICO ESTATAL CENTRO NACIONAL DE …, priority 2015, dated 2019).

Amino acid sequences for entries named in this document (tags omitted). Residues count along the entry.
UniProt Q8TF76, 484-798: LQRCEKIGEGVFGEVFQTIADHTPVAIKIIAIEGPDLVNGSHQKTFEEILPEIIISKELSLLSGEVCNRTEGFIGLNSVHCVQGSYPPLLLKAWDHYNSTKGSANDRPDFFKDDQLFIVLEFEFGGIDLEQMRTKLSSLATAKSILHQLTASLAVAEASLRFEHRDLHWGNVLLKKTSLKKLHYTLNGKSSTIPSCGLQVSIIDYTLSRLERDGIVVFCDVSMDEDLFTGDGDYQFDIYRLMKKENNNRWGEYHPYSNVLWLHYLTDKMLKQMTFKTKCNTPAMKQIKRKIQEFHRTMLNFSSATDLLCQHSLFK

Experiments:
[1] = biological target: T1, intracellular HASPIN (Homo sapiens (Human), UniProt Q8TF76); assay: Cellular HASPIN inhibition assay, western blot phospho H3T3 in synchronized SW620 cells; format: cell-based; conditions: semiquantitative, read-out: SW620 PH3(T3) in synchronized cells
Method: Compounds can be screened for their ability to inhibit intracellular HASPIN using a western blot assay to detect phosphorylation of the HASPIN substrate H3T3 in synchronized cells. SW620 cells are plated at 200000 cells per well in 6-well plates (Solmeglas 13118) in RPMI media (Sigma-Aldrich R6504) supplemented with 10% foetal bovine serum (Sigma-Aldrich F7524), Penicillin/Streptomycin solution diluted 1:100 (Gibco 15070-063), and fungizone (Gibco, 15290-018), and allowed to adhere overnight at 37° C. in 5% CO2. Cells are then treated 16 h hours with Nocadazole (Sigma-Aldrich M1404) at 250 ng/ml to arrest them in mitosis. Proteasoma inhibitor MG132 (Sigma-Aldrich C2211) is added to a final concentration of […] to keep cells arrested in mitosis. Compounds are then added to the cell media from a final concentration of 10 μM in 10-fold serial dilutions and the cells are incubated at 37° C. in 5% CO2. […] The protein content of the lysates is determined by DC protein assay (Biorad, Ref. 5000116). […] The bands are visualized and quantified using an Odyssey infrared imaging system (Li-Cor Biosciences). […] The percentage of H3 phosphorylation is finally plotted against concentration for each compound and EC50s for intracellular HASPIN inhibition are calculated using ActivityBase from IDBS.

[2] = biological target: Haspin kinase (Homo sapiens (Human), UniProt Q8TF76); assay: Haspin kinase assay (ADP-Glo); format: biochemical; conditions: ATP 150 μM
Description: The kinase assay relies on ADP-Glo^KM biochemical kinase assay (Promega). This is a luminescent kinase assay that measures ADP formed from a kinase reaction. Then ADP is converted into ATP, which is transformed into a light signal by Ultra-Glo™ Luciferase. The luminescent signal positively correlates with kinase activity. The assay measures the intrinsic ATPase activity (in the absence of peptidic substrate as phosphate acceptor).
The enzyme was purchase from Invitrogen (PV5708) as the kinase domain of GST tagged recombinant human proteins.
Assay conditions were as indicated by the kit manufacturers with the following adaptations: • Assay buffer: 15 mM HEPES pH 7.4, 20 mM NaCl, 1 mM EGTA, 0.02% Tween 20, 10 mM MgCl2, 0.1 mg/ml BGG • Assay volume: 20 μl • Incubation time and temperature: 60 min at 30° C. • Haspin concentration: 20 nM • ATP concentration: 150 μM • Tested compound: Serial 1:3 dilutions • Final DMSO concentration in the assay: 1%
Assays were performed in 384-well plates. The final read out was generated using an EnVision plate reader (Perkin-Elmer). Luminescent relative units are normalized against the control activity included for each compound (i.e., 100% Haspin activity, without compound) and the percentage of inhibition is calculated.

[3] = biological target: T1, intracellular HASPIN; assay: Endogenous phosphoH3 inhibition in SW620 cells growing in 10% FBS; format: cell-based; conditions: semiquantitative, read-out: SW620 pH3(T3)
Method: Endogenous phosphoH3 inhibition can be screened in cells growing in 10% FBS. Cells are plated as described before and treated for 8 h with compounds as described before. Then cells are lysated and phospho H3 evaluated as described before. The percentage of phosphorylated H3 vs total H3 in cells treated with DMSO is taken as hundred percent of phosphorylation. The percentage of H3 phosphorylation is finally plotted against concentration for each compound and EC50s for intracellular HASPIN inhibition are calculated using ActivityBase from IDBS.

[4] = test system: DU145; assay: Combination assay, DU145; format: cell-based; conditions: Homo sapiens, DU-145; DU145, chemotherapeutic alone; read-out: Chemo GI50
Method: The combination index (CI) of combinations of certain example compounds and various chemotherapeutic agents in the CellTitetI-Glo® in vitro cell proliferation assays may be tested. A combination index score is calculated by the Chou and Talalay method (CalcuSyn software, Biosoft). The strength of synergy is scored using the ranking system Chou and Talalay: CI less than 0.8 indicates synergy, CI between 0.8 and 1.2 indicates additivity and CI greater than 1.2 indicates antagonism.
The EC50 values of representative combinations are also calculated. The individually measured EC50 values of the chemotherapeutic agent and the example compounds are compared to the EC50 value of the combination. The cell lines are characterised by tumor type. Combination assays are performed as described in: “Pim 1 kinase inhibitor ETP-45299 suppresses cellular proliferation and synergizes with PI3K inhibition”. Blanco-Aparicio, Carmen; Collazo, Ana Maria Garcia; Oyarzabal, Julen; Leal, Juan F.; Albaran, Maria Isabel; Lima, Francisco Ramos; Pequeno, Belen; Ajenjo, Nuria; Becerra, Mercedes; Alfonso, Patricia; Reymundo, Maria Isabel; Palacios, Irene; Mateos, Genoveva; Quinones, Helena; Corrionero, Ana; Carnero, Amancio; Pevarello, Paolo; Lopez, Ana Rodriguez; Fominaya, Jesus; Pastor, Joaquin; Bischoff, James R. Cancer Letters (Shannon, Ireland) 2011, 300(2), 145-153

Structure (SMILES)	EC50 [1]	IC50 [2]	EC50 [3]	GI50 [4]
NC(=O)c1cc2c([nH]1)-c1ccncc1O[C@@H]2C1CCCCC1 (single isomer, unassigned) [Example 69]	500 to 10000 nM	5150 nM		
NC(=O)c1cc2c([nH]1)-c1ccncc1O[C@H]2C1CCCCC1 (single isomer, unassigned) [Example 70]	< 500 nM		< 500 nM	
NC(=O)c1cc2c([nH]1)-c1ccncc1OC2C1CCCCC1 (stereo not shown) [Example 57]		296 nM		
CCn1c(C(N)=O)cc2c1-c1ccncc1OC21CCC1 [Example 66]		26.2 nM		
CC(=O)O[C@H]1C(=O)[C@@]2(C)[C@H]([C@H](OC(=O)c3ccccc3)[C@]3(O)C[C@H](OC(=O)[C@H](O)[C@@H](NC(=O)c4ccccc4)c4ccccc4)C(C)=C1C3(C)C)[C@]1(OC(C)=O)CO[C@@H]1C[C@@H]2O [Taxol, paclitaxel, reference compound]				2.5 nM
